Measured values reported in patent publication US12629359B2, “Structural analogues of methylphenidate as Parkinson's disease-modifying agents” (UNIVERSITA' DEGLI STUDI DI BRESCIA, priority 2020, dated 2026).

The chains behind the UniProt entries cited, without tags or fusion partners. Where a name states a change or a piece, a line headed by the entry shows the natural chain unless it says otherwise.
UniProt O14994: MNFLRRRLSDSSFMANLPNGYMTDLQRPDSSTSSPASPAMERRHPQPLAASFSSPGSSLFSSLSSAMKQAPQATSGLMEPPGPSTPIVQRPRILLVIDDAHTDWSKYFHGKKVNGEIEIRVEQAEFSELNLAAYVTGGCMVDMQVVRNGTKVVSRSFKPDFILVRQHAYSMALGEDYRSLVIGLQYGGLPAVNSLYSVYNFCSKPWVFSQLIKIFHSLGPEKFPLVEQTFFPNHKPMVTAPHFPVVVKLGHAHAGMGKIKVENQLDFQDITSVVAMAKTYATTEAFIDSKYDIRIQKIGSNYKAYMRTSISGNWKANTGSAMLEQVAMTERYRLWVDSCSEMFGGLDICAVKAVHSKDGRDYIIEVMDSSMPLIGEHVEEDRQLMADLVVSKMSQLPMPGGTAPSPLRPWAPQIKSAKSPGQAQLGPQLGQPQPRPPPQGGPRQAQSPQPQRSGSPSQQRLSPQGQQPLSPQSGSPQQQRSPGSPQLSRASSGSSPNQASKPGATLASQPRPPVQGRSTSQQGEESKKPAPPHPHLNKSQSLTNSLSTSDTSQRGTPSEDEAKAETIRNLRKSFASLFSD

How the values were obtained:
[1] = molecular target: T1, alpha-synuclein/Synapsin III interaction (Homo sapiens, UniProt O14994+P37840); test: Acceptor photobleaching FRET of alpha-synuclein/Synapsin III interaction in neuronal-differentiated SK-N-SH cells; format: cell-based; details: 10 μM, 15 min, neuronally differentiated SK-N-SH cells
T1 construct: expressed in transfected cells; host or cells: neuronal-differentiated (retinoic acid) human SK-N-SH neuroblastoma cells, transient transfection with Lipofectamine 3000
Experimental: The ability of the different compound to stimulate alpha-synuclein/Synapsin III interaction was evaluated by acceptor photobleaching FRET or FLIM in neuronal-like cells. In particular, we used neuronal-differentiated SK—N—SH neuroblastoma cells transiently transfected with red fluorescent protein (RFP)-tagged human wild type alpha-synuclein and green fluorescent protein (GFP)-tagged the human 63 kDa Synapsin III isoform.
Acceptor photobleaching FRET microscopy allows an accurate evaluation of protein-protein interaction through the measurement of FRET efficiency. This parameter is indicative of the increase of donor fluorescence after complete photobleaching of the acceptor fluorescence, within a FRET pair of fluorophores (where the emission wavelength of a donor falls within the excitation wavelength of an acceptor). […] We thus measured donor (GFP-Synapsin III) fluorescence after the complete photobleaching of the acceptor (RFP-alpha-synuclein) in the cells that were treated for 15 min with MPH, I-threo, IV-threo, V-threo or VI-threo at 10 μM concentration. […] Fixed cells were analyzed by means of a Zeiss confocal laser microscope LSM 880 (Carl Zeiss) with the laser set on A=488-543. After identifying double positive cells three-to-six regions of interest (ROI) were analyzed for 4 series. […]

[2] = system: alpha-synuclein aggregation in primary mesencephalic neurons; test: Alpha-synuclein aggregation in primary mouse midbrain neurons exposed to glucose deprivation; format: cell-based; details: I-threo, VI-threo 50 and 100 nM, MPH 100 nM

## COC(=O)C(c1ccccc1)C1CCCCN1 (centres unmarked) [MPH, Methylphenidate]
[1]
  % FRET efficiency change vs control untreated cells: +3.4%
[2]
  alpha-synuclein inclusion formation (total immunofluorescence intensity and particle size): did not reduce alpha-synuclein aggregation
